Laboratory results from paper PMC11078990, “Identification and characterization of small molecule inhibitors of the LINE-1 retrotransposon endonuclease” (Nature Communications, 2024).

Protein sequences, listed by entry. Tags and fused reporters are not part of them. Lines headed by an entry give the natural chain unless they say otherwise; changes in a name come on top.
UniProt O00370: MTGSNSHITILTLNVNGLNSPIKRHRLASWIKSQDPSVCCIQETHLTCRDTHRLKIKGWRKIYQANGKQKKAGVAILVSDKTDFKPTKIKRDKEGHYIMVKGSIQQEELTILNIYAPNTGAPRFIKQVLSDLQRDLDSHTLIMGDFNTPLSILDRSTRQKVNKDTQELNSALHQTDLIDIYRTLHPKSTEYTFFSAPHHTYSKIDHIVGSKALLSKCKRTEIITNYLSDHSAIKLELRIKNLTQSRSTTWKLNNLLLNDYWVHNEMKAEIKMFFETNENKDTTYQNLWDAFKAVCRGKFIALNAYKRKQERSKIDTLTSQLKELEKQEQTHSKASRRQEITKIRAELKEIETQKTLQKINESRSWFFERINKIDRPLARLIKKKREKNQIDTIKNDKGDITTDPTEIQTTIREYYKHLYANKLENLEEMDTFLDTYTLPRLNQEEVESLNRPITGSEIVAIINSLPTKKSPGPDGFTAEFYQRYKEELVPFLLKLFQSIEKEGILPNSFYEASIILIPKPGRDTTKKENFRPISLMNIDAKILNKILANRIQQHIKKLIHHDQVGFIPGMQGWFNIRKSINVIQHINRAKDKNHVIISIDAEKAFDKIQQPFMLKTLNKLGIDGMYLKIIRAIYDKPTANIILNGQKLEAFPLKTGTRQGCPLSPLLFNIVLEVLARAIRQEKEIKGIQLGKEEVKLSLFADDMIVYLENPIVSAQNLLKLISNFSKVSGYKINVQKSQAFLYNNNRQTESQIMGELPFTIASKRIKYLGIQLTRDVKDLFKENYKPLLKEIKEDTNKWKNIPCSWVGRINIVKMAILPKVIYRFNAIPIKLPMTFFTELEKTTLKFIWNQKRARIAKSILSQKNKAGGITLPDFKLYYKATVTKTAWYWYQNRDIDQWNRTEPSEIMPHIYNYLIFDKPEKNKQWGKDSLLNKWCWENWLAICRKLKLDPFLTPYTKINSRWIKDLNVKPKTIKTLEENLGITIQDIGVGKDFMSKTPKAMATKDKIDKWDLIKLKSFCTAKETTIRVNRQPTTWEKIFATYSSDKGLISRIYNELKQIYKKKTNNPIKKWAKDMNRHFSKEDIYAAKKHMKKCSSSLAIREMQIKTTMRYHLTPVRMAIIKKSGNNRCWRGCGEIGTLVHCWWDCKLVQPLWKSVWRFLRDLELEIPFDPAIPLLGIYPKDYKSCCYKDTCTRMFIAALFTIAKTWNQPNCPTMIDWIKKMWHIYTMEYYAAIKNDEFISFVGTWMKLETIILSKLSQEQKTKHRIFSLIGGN

Columns and labels:
EN = EN (Homo sapiens, UniProt O00370, N5T); assay: Spectral shift binding assay (Monolith X) with fluorescently labeled EN
[1] = target: L1 EN (LINE-1 retrotransposon endonuclease domain) (Homo sapiens, UniProt O00370, N5T); assay: Fluorescent oligonucleotide EN nicking activity assay; format: biochemical

For `COc1ccc2c(c1)C(=O)N(CCc1ccc(S(=O)(=O)NC(=O)NC3CCCCC3)cc1)C(=O)C2(C)C` [AD12], the Kd (EN; independent experiments (Replicate 1-5), source data of Table 1, read-out: Kd replicates) was 736 µM and 367 µM and 1160 µM, the Kd (EN; mean ± s.d., at least 3 independent spectral shift experiments, N.D. = binding not detected, read-out: Kd) was 756 ± 399 µM and the Kd (EN; spectral shift assay, Figure 3, Replicate 1, read-out: Kd, Replicate 1) was 671 µM. It also gave a Kd (EN; spectral shift assay, Figure 3, Replicate 2, read-out: Kd, Replicate 2) of 688 µM, a Kd (EN; spectral shift assay, Figure 3, Replicate 3, read-out: Kd, Replicate 3) of 849 µM and a Kd (EN; spectral shift assay, Figure 3, average of 3 replicates, read-out: Kd, average) of 736 µM. For the same compound, the IC50 ([1]; Replicate 1-3 of the representative experiment of Fig. 2b, read-out: IC50 (μM), technical replicates) was 578 µM and 573 µM and 539 µM, the IC50 ([1]; average of 3 technical replicates, representative experiment of Fig. 2b, read-out: IC50 (μM), average) was 563 µM and the IC50 ([1]; independent experiments (Replicate 1-6), source data of Table 1, read-out: IC50 replicates) was 622 µM and 563 µM and 829 µM. For the same compound, the IC50 ([1]; mean ± s.d., at least 3 independent experiments, read-out: IC50) was 671 ± 140 µM.

“And” between values parts separate entries of the source, which are not always exact repeats. Equal entries are not always repeated. Where two headings read alike, the source gives them in different places.
